ChEMBL document CHEMBL1130243, “Potent and selective inhibition of neuronal nitric oxide synthase by N omega-propyl-L-arginine” (J Med Chem, 1997)

Molecular target: T1, Nitric oxide synthase 3 (Bos taurus, UniProt P29473)
T1 sequence (P29473 whole entry): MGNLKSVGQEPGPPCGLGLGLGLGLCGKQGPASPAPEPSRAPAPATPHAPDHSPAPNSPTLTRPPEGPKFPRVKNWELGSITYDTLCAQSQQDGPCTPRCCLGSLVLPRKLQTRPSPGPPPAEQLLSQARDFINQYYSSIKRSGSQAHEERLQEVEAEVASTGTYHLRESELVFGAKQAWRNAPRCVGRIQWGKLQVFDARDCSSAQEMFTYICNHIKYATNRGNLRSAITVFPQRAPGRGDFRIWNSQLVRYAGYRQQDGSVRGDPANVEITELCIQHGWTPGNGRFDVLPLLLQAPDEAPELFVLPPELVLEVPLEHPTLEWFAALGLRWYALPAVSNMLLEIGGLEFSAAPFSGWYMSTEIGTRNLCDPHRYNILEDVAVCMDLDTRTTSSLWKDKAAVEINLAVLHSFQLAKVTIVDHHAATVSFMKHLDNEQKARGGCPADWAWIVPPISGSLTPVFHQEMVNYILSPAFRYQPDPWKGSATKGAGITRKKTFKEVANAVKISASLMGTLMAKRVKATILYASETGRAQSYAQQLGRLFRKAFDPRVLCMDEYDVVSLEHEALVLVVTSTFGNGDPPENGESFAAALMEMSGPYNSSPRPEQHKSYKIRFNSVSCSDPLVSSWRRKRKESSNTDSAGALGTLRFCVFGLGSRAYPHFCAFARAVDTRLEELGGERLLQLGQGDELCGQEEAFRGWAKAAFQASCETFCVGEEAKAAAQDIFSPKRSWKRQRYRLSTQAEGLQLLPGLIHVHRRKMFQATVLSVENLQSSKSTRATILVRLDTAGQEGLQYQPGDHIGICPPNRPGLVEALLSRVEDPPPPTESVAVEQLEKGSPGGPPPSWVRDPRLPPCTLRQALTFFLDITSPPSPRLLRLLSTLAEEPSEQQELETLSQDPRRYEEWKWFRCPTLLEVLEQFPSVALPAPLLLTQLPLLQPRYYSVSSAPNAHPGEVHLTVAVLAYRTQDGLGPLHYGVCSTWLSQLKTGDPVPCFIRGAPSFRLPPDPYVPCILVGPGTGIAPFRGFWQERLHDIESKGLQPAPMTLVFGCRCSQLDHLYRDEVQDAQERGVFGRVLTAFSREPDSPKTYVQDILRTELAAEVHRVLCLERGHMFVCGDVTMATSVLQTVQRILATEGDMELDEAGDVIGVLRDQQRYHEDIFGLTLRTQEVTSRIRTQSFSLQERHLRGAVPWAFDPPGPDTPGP
Assay: Compound was tested for binding affinity against Endothelial nitric oxide synthase

SMILES | Ki
C#CC/N=C(/N)NCCCC(N)C(=O)O (configuration not stated) | 0.81 µM
CNC(=N)NCCC[C@H](N)C(=O)O [TILARGININE] | 5.9 µM
